Experimental findings from ChEMBL document CHEMBL5108017 are described below.

The test system of this test is Mus musculus. Put plainly: Antinociceptive activity in acute pain model of mouse when administered orally measured by paw pressure test. To be noted: route po.

As to `CCN1CC2(CCN(CCc3cc(F)ccc3F)CC2)O[C@H](C)C1=O`, the ED50 was found to be 14 mg/kg.

The term ED50 denotes the dose that gives a 50% effect, or the effect in half of the subjects. A higher ED50 goes with weaker potency.
